Data: US4067986A, “Novel penicillanic acid” (Gist-Brocades N.V., priority 1974, dated 1978)
≈ marks a conversion by molar mass, not a printed value.

Experiments:
Serum level in rabbits = conditions: for max. serumlevel: 10 mg/kg
[1] = Secretion in urine of rabbits
Sarc. lut. ATCC 9341 = experiment: Inhibition zones of blood samples of mice
Sarcina lutea ATCC 9341 [2] = experiment: ABA test, antibacterial activity in urine of mice; conditions: urine of 21/2 hr, disc 7 mm
Sarcina lutea ATCC 9341 [3] = experiment: MIC, agar serial dilution test
[4] = i.m. = 1/2 hr. (tables C-E), 30 min
[5] = oral = 1/2 hr. (tables C-E), 30 min

Which max. bloodlevel (Blood level in mice; 100 mg/kg i.p.) does the source give for `COP(=O)(O)NC(=O)N[C@@H](C(=O)N[C@@H]1C(=O)N2[C@@H]1SC(C)(C)[C@@H]2C(=O)O)c1ccc(O)cc1` here?
The max. bloodlevel was 23 µg/mL.

What about the max. bloodlevel (Blood level in mice; 100 mg/kg or.) of the same compound?
The max. bloodlevel was 1.6 µg/mL.

And the Serumlevel (Serum level in rabbits; 10 mg/kg i.m., 1/2 hr, 30 min)?
The Serumlevel was 18.3 µg/mL.

And the Serumlevel (Serum level in rabbits; 10 mg/kg i.m., 1/4 hr, 15 min)?
Its Serumlevel is 25.3 µg/mL.

And the Serumlevel (Serum level in rabbits; 10 mg/kg i.m., 1 hr)?
The Serumlevel was 10.3 µg/mL.

What about the Serumlevel (Serum level in rabbits; 10 mg/kg i.m., 2 hr) of the same compound?
Its Serumlevel is 3.3 µg/mL.

And the Serumlevel (Serum level in rabbits; 10 mg/kg or., 1/2 hr, 30 min)?
The Serumlevel was 0.3 µg/mL.

What about the Serumlevel (Serum level in rabbits; 10 mg/kg or., 1/4 hr, 15 min) of the same compound?
Its Serumlevel is 0.3 µg/mL.

And the Serumlevel (Serum level in rabbits; 10 mg/kg or., 1 hr)?
The Serumlevel was 0.3 µg/mL.

What about the Serumlevel (Serum level in rabbits; 10 mg/kg or., 2 hr) of the same compound?
The Serumlevel was under 0.2 µg/mL.

What about the Serumlevel (Serum level in rabbits; 10 mg/kg or., 4 hr) of the same compound?
The Serumlevel was under 0.05 µg/mL.

And the “% of the administered dose secreted after 24 hr” value ([1]; 10 mg/kg i.m. (tables B-E))?
Its value is 110%.

And the “% of the secreted compound in urine” value ([1]; 10 mg/kg i.m., 6 hr)?
The value was 102%.

And the “% of the secreted compound in urine” value ([1]; 10 mg/kg i.m., 24 hr)?
The value was 110%.

And the “% of the secreted compound in urine” value ([1]; 10 mg/kg or., 6 hr)?
The value was 13.4%.

And the “% of the secreted compound in urine” value ([1]; 10 mg/kg or., 24 hr)?
The value was 20.8%.

And the “% of the administered dose secreted after 24 hr” value ([1]; 10 mg/kg oral (tables B-E))?
Its value is 20.8%.

What about the Max. inhibition zone (Sarc. lut. ATCC 9341; 100 mg/kg i.p.) of the same compound?
The Max. inhibition zone was 27 mm.

And the Max. inhibition zone (Sarc. lut. ATCC 9341; 100 mg/kg or.)?
Its Max. inhibition zone is 14 mm.

What about the “ABA, inhibition zone of urine” value (Sarcina lutea ATCC 9341 [2]; 100 mg/kg i.p.) of the same compound?
The value was 52 mm.

And the “ABA, inhibition zone of urine” value (Sarcina lutea ATCC 9341 [2]; 100 mg/kg or.)?
The value was 47 mm.

Which max. bloodlevel (Blood level in mice; 100 mg/kg i.p.) does the source give for `CCOP(=O)(O)NC(=O)N[C@@H](C(=O)N[C@@H]1C(=O)N2[C@@H]1SC(C)(C)[C@@H]2C(=O)O)c1ccc(O)cc1` here?
The max. bloodlevel was 37 µg/mL.

And the max. bloodlevel (Blood level in mice; 100 mg/kg or.)?
The max. bloodlevel was 2 µg/mL.

And the Serumlevel (Serum level in rabbits; 10 mg/kg i.m., 1/2 hr, 30 min)?
The Serumlevel was 19.7 µg/mL.

And the Serumlevel (Serum level in rabbits; 10 mg/kg i.m., 1/4 hr, 15 min)?
Its Serumlevel is 23.4 µg/mL.

What about the Serumlevel (Serum level in rabbits; 10 mg/kg i.m., 1 hr) of the same compound?
Its Serumlevel is 13.0 µg/mL.

What about the Serumlevel (Serum level in rabbits; 10 mg/kg i.m., 2 hr) of the same compound?
Its Serumlevel is 4.7 µg/mL.

What about the Serumlevel (Serum level in rabbits; 10 mg/kg i.m., 4 hr) of the same compound?
The Serumlevel was 0.6 µg/mL.

And the Serumlevel (Serum level in rabbits; 10 mg/kg or., 1/2 hr, 30 min)?
The Serumlevel was 0.64 µg/mL.

And the Serumlevel (Serum level in rabbits; 10 mg/kg or., 1/4 hr, 15 min)?
The Serumlevel was under 0.57 µg/mL.

What about the Serumlevel (Serum level in rabbits; 10 mg/kg or., 1 hr) of the same compound?
Its Serumlevel is 0.64 µg/mL.

What about the Serumlevel (Serum level in rabbits; 10 mg/kg or., 2 hr) of the same compound?
The Serumlevel was under 0.54 µg/mL.

What about the Serumlevel (Serum level in rabbits; 10 mg/kg or., 4 hr) of the same compound?
Its Serumlevel is under 0.5 µg/mL.

And the max. serumlevel (Serum level in rabbits; [4])?
Its max. serumlevel is 23.4 µg/mL.

What about the max. serumlevel (Serum level in rabbits; [5]) of the same compound?
Its max. serumlevel is 0.64 µg/mL.

What about the “% of the administered dose secreted after 24 hr” value ([1]; 10 mg/kg i.m. (tables B-E)) of the same compound?
Its value is 46-63%.

What about the “% of the secreted compound in urine” value ([1]; 10 mg/kg i.m., 6 hr) of the same compound?
The value was 45.8%.

And the “% of the secreted compound in urine” value ([1]; 10 mg/kg i.m., 24 hr)?
The value was under 63.0%.

What about the “% of the secreted compound in urine” value ([1]; 10 mg/kg or., 6 hr) of the same compound?
The value was under 0.62%.

What about the “% of the secreted compound in urine” value ([1]; 10 mg/kg or., 24 hr) of the same compound?
The value was under 1.22%.

And the “% of the administered dose secreted after 24 hr” value ([1]; 10 mg/kg oral (tables B-E))?
The value was under 1.22%.

What about the MIC (Sarcina lutea ATCC 9341 [3]; agar serial dilution) of the same compound?
The MIC was 0.5 µg/mL (≈ 0.968 µM).

And the MIC (Sarcina lutea ATCC 9341 [3]; tables B-E)?
Its MIC is 0.5 µg/mL (≈ 0.968 µM).

And the Max. inhibition zone (Sarc. lut. ATCC 9341; 100 mg/kg i.p.)?
The Max. inhibition zone was 23 mm.

And the Max. inhibition zone (Sarc. lut. ATCC 9341; 100 mg/kg or.)?
Its Max. inhibition zone is 9 mm.

And the “ABA, inhibition zone of urine” value (Sarcina lutea ATCC 9341 [2]; 100 mg/kg i.p.)?
The value was 51 mm.

And the “ABA, inhibition zone of urine” value (Sarcina lutea ATCC 9341 [2]; 100 mg/kg or.)?
The value was 41 mm.

Which max. bloodlevel (Blood level in mice; 100 mg/kg i.p.) does the source give for `CC1(C)S[C@@H]2[C@H](NC(=O)[C@H](NC(=O)NP(=O)(O)O)c3ccc(O)cc3)C(=O)N2[C@H]1C(=O)O` here?
The max. bloodlevel was 134 µg/mL.

And the Serumlevel (Serum level in rabbits; 10 mg/kg i.m., 1/2 hr, 30 min)?
Its Serumlevel is 68.0 µg/mL.

And the Serumlevel (Serum level in rabbits; 10 mg/kg i.m., 1/4 hr, 15 min)?
The Serumlevel was 81.3 µg/mL.

And the Serumlevel (Serum level in rabbits; 10 mg/kg i.m., 1 hr)?
Its Serumlevel is 38.3 µg/mL.

What about the Serumlevel (Serum level in rabbits; 10 mg/kg i.m., 2 hr) of the same compound?
The Serumlevel was 9.6 µg/mL.

And the Serumlevel (Serum level in rabbits; 10 mg/kg i.m., 4 hr)?
The Serumlevel was 0.43 µg/mL.

And the Serumlevel (Serum level in rabbits; 10 mg/kg or., 1/2 hr, 30 min)?
Its Serumlevel is under 0.25 µg/mL.

What about the Serumlevel (Serum level in rabbits; 10 mg/kg or., 1/4 hr, 15 min) of the same compound?
The Serumlevel was under 0.25 µg/mL.

What about the Serumlevel (Serum level in rabbits; 10 mg/kg or., 1 hr) of the same compound?
The Serumlevel was under 0.25 µg/mL.

And the Serumlevel (Serum level in rabbits; 10 mg/kg or., 2 hr)?
Its Serumlevel is under 0.25 µg/mL.

What about the Serumlevel (Serum level in rabbits; 10 mg/kg or., 4 hr) of the same compound?
The Serumlevel was under 0.25 µg/mL.

What about the max. serumlevel (Serum level in rabbits; [4]) of the same compound?
Its max. serumlevel is 81.3 µg/mL.

What about the max. serumlevel (Serum level in rabbits; [5]) of the same compound?
Its max. serumlevel is under 0.25 µg/mL.

And the “% of the secreted compound in urine” value ([1]; 10 mg/kg or., 6 hr)?
The value was 3.3%.

What about the “% of the secreted compound in urine” value ([1]; 10 mg/kg or., 24 hr) of the same compound?
Its value is 5.9%.

And the “% of the administered dose secreted after 24 hr” value ([1]; 10 mg/kg oral (tables B-E))?
The value was 6%.

What about the Max. inhibition zone (Sarc. lut. ATCC 9341; 100 mg/kg i.p.) of the same compound?
Its Max. inhibition zone is 38 mm.

What about the Max. inhibition zone (Sarc. lut. ATCC 9341; 100 mg/kg or.) of the same compound?
Its Max. inhibition zone is 7 mm.

And the “ABA, inhibition zone of urine” value (Sarcina lutea ATCC 9341 [2]; 100 mg/kg i.p.)?
Its value is 60 mm.

And the “ABA, inhibition zone of urine” value (Sarcina lutea ATCC 9341 [2]; 100 mg/kg or.)?
The value was 34 mm.
